# Assay results published in patent US20060073067A1, “Peracid-based large-area decontamination” (published 2006).
# System: Bacillus globigii
# Experiment: Surviving CFU/ml of Bacillus globigii after exposure to PAB
# Details: 15 minutes exposure to 1 mg/ml PAB; starting concentration 8.5×10^4 CFU/ml (FIG. 1)
substance,measurement,value
acetyl peroxyborate,final concentration of surviving colony forming units per milliliter,< 300 CFU/ml
